A word on the EC50: it is the concentration giving half of the maximal effect. High values mean weaker potency, low ones greater potency.

Amino acid sequences for entries named in this document (tags omitted).
UniProt Q02108, whole entry: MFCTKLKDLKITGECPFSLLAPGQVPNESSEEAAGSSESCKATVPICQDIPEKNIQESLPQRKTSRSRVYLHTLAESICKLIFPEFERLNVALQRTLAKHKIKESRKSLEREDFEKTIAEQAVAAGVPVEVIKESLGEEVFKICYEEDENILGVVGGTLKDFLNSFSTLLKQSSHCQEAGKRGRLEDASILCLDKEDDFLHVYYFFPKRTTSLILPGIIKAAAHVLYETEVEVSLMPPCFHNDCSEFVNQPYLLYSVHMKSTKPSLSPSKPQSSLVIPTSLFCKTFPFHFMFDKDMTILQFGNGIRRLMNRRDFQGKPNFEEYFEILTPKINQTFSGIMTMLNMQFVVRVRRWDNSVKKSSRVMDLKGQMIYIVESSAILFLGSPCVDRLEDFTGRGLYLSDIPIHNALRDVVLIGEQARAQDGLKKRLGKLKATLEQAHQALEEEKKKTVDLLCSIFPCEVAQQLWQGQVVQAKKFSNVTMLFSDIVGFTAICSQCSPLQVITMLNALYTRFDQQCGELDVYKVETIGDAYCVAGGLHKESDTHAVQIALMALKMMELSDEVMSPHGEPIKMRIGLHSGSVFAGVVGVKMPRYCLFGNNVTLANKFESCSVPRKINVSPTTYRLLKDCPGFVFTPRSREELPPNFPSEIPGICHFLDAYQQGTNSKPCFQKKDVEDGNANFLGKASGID
UniProt Q02153, whole entry: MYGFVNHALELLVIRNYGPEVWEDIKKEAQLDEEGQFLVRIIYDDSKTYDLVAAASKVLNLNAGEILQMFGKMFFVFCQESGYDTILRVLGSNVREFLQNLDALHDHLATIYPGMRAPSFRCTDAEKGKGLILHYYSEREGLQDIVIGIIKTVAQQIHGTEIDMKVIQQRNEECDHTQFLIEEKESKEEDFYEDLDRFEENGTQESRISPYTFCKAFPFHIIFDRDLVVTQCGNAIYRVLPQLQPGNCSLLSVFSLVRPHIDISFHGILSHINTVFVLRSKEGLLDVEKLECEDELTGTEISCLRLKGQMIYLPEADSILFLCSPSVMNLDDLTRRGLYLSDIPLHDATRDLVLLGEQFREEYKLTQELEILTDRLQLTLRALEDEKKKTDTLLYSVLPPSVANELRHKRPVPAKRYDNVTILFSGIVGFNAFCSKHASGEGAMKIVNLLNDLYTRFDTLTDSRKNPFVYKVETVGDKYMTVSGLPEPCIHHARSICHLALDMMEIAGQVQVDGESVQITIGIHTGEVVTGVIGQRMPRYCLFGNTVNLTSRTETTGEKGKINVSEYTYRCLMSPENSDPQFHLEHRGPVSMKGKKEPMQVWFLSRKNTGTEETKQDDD

These results are taken from patent EP4786461A1, “PYRAZOLE CARBOXYLIC ACID DERIVATIVE AND USE THEREOF IN MEDICINE” (Haisco Pharmaceutical Group Co., Ltd., priority 2023, dated 2025).

In this assay the target is soluble guanylate cyclase (sGC) (Homo sapiens, UniProt Q02108+Q02153). Briefly: In vitro detection experiment for soluble guanylate cyclase (sGC) activity (TR-FRET cGMP). To be noted: enzymatic agonism and/or activation of sGC; 1.5 nM sGC, 5 µM GTP, 100 µM DETA NONOate; tested form: free form. (In general: Time-resolved FRET reads energy transfer from a long-lived donor to a nearby acceptor.)

Compound `CC(C)CN1C2CCC1CN(c1ccc(-c3ccc(Cl)cc3N3CCCC(n4ncc(C(=O)O)c4C(F)F)C3)cc1)C2` (single isomer, unassigned) registered an EC50 of less than 20 nM.
